Test results: US20240277902A1, “METHOD FOR MANUFACTURING PERIPHERAL NERVE-MIMICKING MICROTISSUE AND USES THEREOF” (INNOSTEM BIO, priority 2021, published 2024)

Tested on: PNSCs
Experiment: Microtissue formation frequency and size according to HSA concentration
Assay type: cell-based
Settings: 24 hours suspension culture
Description: The Example provides a method of controlling the formation, number, and size of the peripheral nerve-mimicking microtissue by controlling a concentration of human serum albumin (HSA) added in the suspension culture medium. PNSCs collected from the monolayer culture environment are suspended in a suspension culture medium at a density of 1.0E+06/mL. The suspension culture medium was prepared by adding 1 μM dexamethasone and 1 mM N-acetylcysteine in a DMEM/F12 culture medium. ULA 6-well culture vessel (SPL Life Sciences) was used for preparation of peripheral nerve-mimicking microtissues. 1.0×10^5 PNSCs per cm^2 area were seeded in ULA 6-well culture vessels. 3 mL of suspension culture medium including 0, 0.01, 0.1, and 1% HSA was added to the culture vessel and subjected to suspension culture for 24 hours. The number and size of the formed peripheral nerve-mimicking microtissue were measured by a photoplanimetry method using ImageJ.

human serum albumin [HSA]
formation frequency of microtissue formation (0.01, 0.1, and 1% HSA vs group without HSA): increased significantly
size of peripheral nerve-mimicking microtissue (0.01, 0.1, and 1% HSA): increased significantly in proportion to the concentration
